From US20260384438A1, “PYRROLOPYRIMIDINE CARBOXAMIDES” (published 2026) come the findings set out here.

The chains behind the UniProt entries cited, without tags or fusion partners. Residues count along the entry.
UniProt P30291, whole entry: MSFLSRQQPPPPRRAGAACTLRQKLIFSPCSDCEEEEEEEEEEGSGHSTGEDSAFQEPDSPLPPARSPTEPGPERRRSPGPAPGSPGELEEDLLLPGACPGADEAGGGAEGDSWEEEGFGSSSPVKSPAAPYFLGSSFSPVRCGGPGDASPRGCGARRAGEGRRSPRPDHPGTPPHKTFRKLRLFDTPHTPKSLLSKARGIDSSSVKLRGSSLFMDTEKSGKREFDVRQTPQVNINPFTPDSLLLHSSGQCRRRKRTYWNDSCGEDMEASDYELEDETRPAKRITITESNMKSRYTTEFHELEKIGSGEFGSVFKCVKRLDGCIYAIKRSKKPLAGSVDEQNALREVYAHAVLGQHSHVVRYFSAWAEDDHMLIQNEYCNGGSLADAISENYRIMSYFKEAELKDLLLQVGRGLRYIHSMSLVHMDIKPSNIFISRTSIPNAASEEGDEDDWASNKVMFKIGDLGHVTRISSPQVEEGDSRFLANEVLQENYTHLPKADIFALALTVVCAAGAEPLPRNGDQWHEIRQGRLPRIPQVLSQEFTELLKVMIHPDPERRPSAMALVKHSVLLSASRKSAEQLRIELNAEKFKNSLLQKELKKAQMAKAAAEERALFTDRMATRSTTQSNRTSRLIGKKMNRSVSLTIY
UniProt P54753, 34-998 limits assumed: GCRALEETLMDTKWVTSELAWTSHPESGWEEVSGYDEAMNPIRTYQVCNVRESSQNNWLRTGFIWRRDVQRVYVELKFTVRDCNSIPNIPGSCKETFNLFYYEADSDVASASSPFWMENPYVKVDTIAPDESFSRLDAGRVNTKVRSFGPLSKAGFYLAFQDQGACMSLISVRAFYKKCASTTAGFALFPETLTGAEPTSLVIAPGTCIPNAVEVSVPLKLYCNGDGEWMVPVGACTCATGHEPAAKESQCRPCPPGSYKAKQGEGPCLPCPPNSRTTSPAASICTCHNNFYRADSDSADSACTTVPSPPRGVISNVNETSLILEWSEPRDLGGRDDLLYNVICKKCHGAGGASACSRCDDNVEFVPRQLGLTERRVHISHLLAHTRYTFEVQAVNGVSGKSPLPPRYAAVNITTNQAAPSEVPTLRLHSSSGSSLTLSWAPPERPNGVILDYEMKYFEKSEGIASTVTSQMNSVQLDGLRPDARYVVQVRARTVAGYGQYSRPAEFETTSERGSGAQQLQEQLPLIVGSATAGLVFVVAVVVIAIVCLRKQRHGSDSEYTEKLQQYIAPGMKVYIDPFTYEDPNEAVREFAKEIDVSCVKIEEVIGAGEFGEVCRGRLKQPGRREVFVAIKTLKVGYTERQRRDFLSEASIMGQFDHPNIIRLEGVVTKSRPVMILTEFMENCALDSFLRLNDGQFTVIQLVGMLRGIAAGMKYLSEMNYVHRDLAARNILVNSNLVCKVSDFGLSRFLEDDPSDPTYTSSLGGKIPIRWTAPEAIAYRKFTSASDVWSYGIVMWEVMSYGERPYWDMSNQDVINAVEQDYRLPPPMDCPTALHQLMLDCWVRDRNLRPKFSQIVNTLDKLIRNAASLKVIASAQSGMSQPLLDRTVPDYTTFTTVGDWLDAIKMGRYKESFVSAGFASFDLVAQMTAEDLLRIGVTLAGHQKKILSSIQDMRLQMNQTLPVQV

In general, LogD refers to lipophilicity at a set pH, counting ionised and neutral species. High values mean higher lipophilicity, low ones lower lipophilicity. Broadly, the IC50 is the midpoint of a concentration-inhibition curve.

One data set in a line: Log D octanol/PBS pH 7.4. The conditions noted are these: octanol/PBS pH 7.4, 1 μM.
Data set [1] in a line: Aqueous (thermodynamic) solubility, pH 7.4. As to conditions: 0.1 M phosphate buffer pH 7.4, 24 h, 25 °C.
In a further data set the target is WEE1 (Homo sapiens, UniProt P30291). Put plainly: NanoBRET target engagement in HEK293T cells, WEE1. The conditions noted are these: read-out: WEE1 INHIBITION IC50, 2 h. (BRET reads energy transfer from a luciferase to a nearby fluorophore.)
Another data set concerns the target EPHB3 (Homo sapiens, UniProt P54753). Put plainly: NanoBRET target engagement in HEK293T cells, EPHB3. The conditions noted are these: read-out: EPHB3 INHIBITION IC50, 2 h.

Turning to `Cc1ccc(O)c(C)c1-n1c(N)c(C(N)=O)c2cnc(N3CCC3)nc21` (single isomer, unassigned) [75, Isomer2], the LogD in the data set “Log D octanol/PBS pH 7.4” is 2.06. The “Solubility pH 7.4” value in data set [1] was 361 μM.
In the data set “Log D octanol/PBS pH 7.4”, `CCc1ncc2c(n1)c(-c1cc(O)ccc1C)c(N)n2C(N)=O` (single isomer, unassigned) [49, Isomer1] registered a LogD of 1.79. Further, the “Solubility pH 7.4” value in data set [1] was >995 μM.
The compound `Cc1ccc(O)c(C)c1-n1c(N)c(C(N)=O)c2cnc(C3CCC3)nc21` (single isomer, unassigned) [71, Isomer1] returned a log distribution coefficient (LogD) in the data set “Log D octanol/PBS pH 7.4” of 2.62. Besides, in data set [1], the “Solubility pH 7.4” value stood at 115 μM.
For `Cc1cc2c(cn1)c(C(N)=O)c(N)n2-c1c(C)ccc(O)c1C` (single isomer, unassigned) [52, Isomer2] the same measures were 1.69 and >1000 μM.
For `Cc1ccc(O)c(C)c1-n1c(N)c(C(N)=O)c2cnc(C3CCC3)nc21` (single isomer, unassigned) [71, Isomer2], in that order: 2.61 and 180 μM.
For `Cc1ncc2c(C(N)=O)c(N)n(-c3c(C)ccc(O)c3C)c2n1` (single isomer, unassigned) [1, Isomer2] the same measures were 1.38 and 910 μM.
`Cc1ccc(O)c(C)c1-n1c(N)c(C(N)=O)c2cnc(C(F)(F)F)nc21` (single isomer, unassigned) [62, Isomer1]: the pH-dependent lipophilicity (LogD) in “Log D octanol/PBS pH 7.4” is 2.3. Further, the “Solubility pH 7.4” value in data set [1] is given as 360 μM.
In the data set “Log D octanol/PBS pH 7.4”, `Cc1ncc2c(C(N)=O)c(N)n(-c3c(Br)ccc(O)c3C)c2n1` (single isomer, unassigned) [86, Isomer1] gave a pH-dependent lipophilicity (LogD) of 1.69. In addition, the “Solubility pH 7.4” value in data set [1] was found to be 84 μM.
With `Cc1ncc2c(C(N)=O)c(N)n(-c3c(Cl)ccc(O)c3Cl)c2n1` (single isomer, unassigned) [85, Isomer2], the log distribution coefficient (LogD) in “Log D octanol/PBS pH 7.4” amounted to 0.973. Moreover, the “Solubility pH 7.4” value in data set [1] was 760 μM.
Compound `Cc1cc2c(cn1)c(C(N)=O)c(N)n2-c1c(C)ccc(O)c1C` (single isomer, unassigned) [52, Isomer1] gave a LogD in the data set “Log D octanol/PBS pH 7.4” of 1.78. Further, the “Solubility pH 7.4” value in data set [1] is reported as >1000 μM.
For `CCc1ncc2c(n1)c(-c1cc(O)ccc1C)c(N)n2C(N)=O` (single isomer, unassigned) [49, Isomer2], in that order: 1.81 and >1000 μM.
For `Cc1ncc2c(C(N)=O)c(N)n(-c3c(Cl)ccc(O)c3C)c2n1` (single isomer, unassigned) [73, Isomer1], in that order: 1.68 and 118 μM.
Regarding `C=Cc1ncc2c(C(N)=O)c(N)n(-c3c(C)ccc(O)c3C)c2n1` (single isomer, unassigned) [17, Isomer2], the pH-dependent lipophilicity (LogD) in “Log D octanol/PBS pH 7.4” was 2.07. The “Solubility pH 7.4” value in data set [1] is given as >1000 μM.
For `Cc1ccc(O)c(C)c1-n1c(N)c(C(N)=O)c2cnc(Cl)nc21` (single isomer, unassigned) [57, Isomer1], in that order: 1.87 and >918 μM.
In the case of `CC#Cc1ncc2c(C(N)=O)c(N)n(-c3c(C)ccc(O)c3C)c2n1` (single isomer, unassigned) [93, Isomer1], the LogD in “Log D octanol/PBS pH 7.4” was 1.87. The “Solubility pH 7.4” value in data set [1] was >1000 μM.
The compound `CCn1cc2c(C(N)=O)c(N)n(-c3c(C)ccc(O)c3C)c2nc1=O` (single isomer, unassigned) [79, Isomer2] gave a pH-dependent lipophilicity (LogD) in the data set “Log D octanol/PBS pH 7.4” of 1.24. For the same compound, in data set [1], the “Solubility pH 7.4” value is >1000 μM.
For `Cc1ccc(O)c(C)c1-n1c(N)c(C(N)=O)c2cnc(N3CCN(C)CC3)nc21` (single isomer, unassigned) [70, Isomer1], in that order: 1.42 and 378 μM.
For `Cc1ccc(O)c(C)c1-n1c(N)c(C(N)=O)c2cn(C)c(=O)cc21` (single isomer, unassigned) [56, Isomer2] the same measures were 0.928 and >1000 μM.
For `Cc1ccc(O)c(C)c1-n1c(N)c(C(N)=O)c2cnc(C(C)C)nc21` (single isomer, unassigned) [48, Isomer1] the same measures were 2.42 and >1000 μM.
The compound `Cc1ncc2c(C(N)=O)c(N)n(-c3c(C)ccc(O)c3C)c2n1` (single isomer, unassigned) [1, Isomer1] showed a LogD in the data set “Log D octanol/PBS pH 7.4” of 1.35. In data set [1], the “Solubility pH 7.4” value stood at 1263 μM.
As for `C=Cc1ncc2c(C(N)=O)c(N)n(-c3c(C)ccc(O)c3C)c2n1` (single isomer, unassigned) [17, Isomer1], in the data set “Log D octanol/PBS pH 7.4”, the LogD came out at 2.12. In addition, the “Solubility pH 7.4” value in data set [1] was >1000 μM.
`Cc1ccc(O)c(C)c1-n1c(N)c(C(N)=O)c2cnc(N3CCCC3)nc21` (single isomer, unassigned) [74, Isomer1] registered a log distribution coefficient (LogD) in the data set “Log D octanol/PBS pH 7.4” of 2.71. Further, the “Solubility pH 7.4” value in data set [1] was 46 μM.
For `Cc1ccc(O)c(C)c1-n1c(N)c(C(N)=O)c2cnc(N3CCC(F)(F)C3)nc21` (single isomer, unassigned) [10, Isomer1] the same measures were 3.04 and 18 μM.
For `Cc1ccc(O)c(C)c1-n1c(N)c(C(N)=O)c2cnc(C(C)C)nc21` (single isomer, unassigned) [48, Isomer2], in that order: 2.39 and >1000 μM.
For `Cc1ncc2c(C(N)=O)c(N)n(-c3c(Cl)ccc(O)c3C)c2n1` (single isomer, unassigned) [73, Isomer2] the same measures were 1.68 and 136 μM.
In the case of `Cc1ccc(O)c(C)c1-n1c(N)c(C(N)=O)c2cnc(N3CCCC3)nc21` (single isomer, unassigned) [74, Isomer2], the pH-dependent lipophilicity (LogD) in “Log D octanol/PBS pH 7.4” is 2.79. The “Solubility pH 7.4” value in data set [1] worked out at 11 μM.
As to `CCOc1ncc2c(C(N)=O)c(N)n(-c3c(C)ccc(O)c3C)c2n1` (single isomer, unassigned) [83, Isomer1], in “Log D octanol/PBS pH 7.4”, the pH-dependent lipophilicity (LogD) is 2. Besides, the “Solubility pH 7.4” value in data set [1] came to 871 μM.
For the compound `Cc1ccc(O)c(C)c1-n1c(N)c(C(N)=O)c2cnc(Cl)nc21` (single isomer, unassigned) [57, Isomer2], the LogD in “Log D octanol/PBS pH 7.4” was 1.76. Also, the “Solubility pH 7.4” value in data set [1] is given as >941 μM.
For `Cc1ccc(O)c(C)c1-n1c(N)c(C(N)=O)c2cnc(C3CC3)nc21` (single isomer, unassigned) [50, Isomer2], in that order: 2.6 and >595 μM.
For `Cc1ncc2c(C(N)=O)c(N)n(-c3c(Br)ccc(O)c3C)c2n1` (single isomer, unassigned) [86, Isomer2] the same measures were 1.71 and 94 μM.
For `Cc1ccc(O)c(C)c1-n1c(N)c(C(N)=O)c2cnc(N3CCC3)nc21` (single isomer, unassigned) [75, Isomer1], in that order: 1.87 and >1000 μM.
With `Cc1ccc(O)c(C)c1-n1c(N)c(C(N)=O)c2cnc(N3CC(C)(C)C3)nc21` (single isomer, unassigned) [135, Isomer1], the LogD in “Log D octanol/PBS pH 7.4” is 2.75. For the same compound, the “Solubility pH 7.4” value in data set [1] is 106 μM.
For `Cc1ccc(O)c(C)c1-n1c(N)c(C(N)=O)c2cnc(C3CC3)nc21` (single isomer, unassigned) [50, Isomer1] the same measures were 2.3 and >994 μM.
`Cc1ncc2c(C(N)=O)c(N)n(-c3c(C)ccc(O)c3C)c2n1`: the half-maximal inhibitory concentration (IC50) on WEE1 and on EPHB3 was > 9.97 µM each time.
